The values that follow come from PubChem BioAssay AID770 (SRMLSC, 2007).

Each structure is given as a SMILES string. The entries are a selection whose mix differs from that of the whole data set. Calls of active or inactive are those of the source.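 How the source made its calls: active means growth inhibition above 90% in viable cell count at a single dose; inactive means growth inhibition below 90%.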

A short description of this experiment: HT29 colon tumor cell growth inhibition, primary screen, imaging, high content imaging, 24 h, CellTiter-Glo (AID 770). Conditions: HT29 cell number by imaging, at 10 µM, active compounds read high.
As for `Cc1cccc(OCC(=O)OC2CN3CCC2CC3)c1` (configuration not stated), the growth inhibition is inactive: -17.9%.

Turning to `Cc1ccc(OCC(=O)OC2CN3CCC2CC3)cc1` (configuration not stated), the growth inhibition was inactive: -14.4%.
